Experimental data as given in ChEMBL document CHEMBL2163296 (J Med Chem, 2012).

The chains behind the UniProt entries cited, without tags or fusion partners.
UniProt P28223, whole entry: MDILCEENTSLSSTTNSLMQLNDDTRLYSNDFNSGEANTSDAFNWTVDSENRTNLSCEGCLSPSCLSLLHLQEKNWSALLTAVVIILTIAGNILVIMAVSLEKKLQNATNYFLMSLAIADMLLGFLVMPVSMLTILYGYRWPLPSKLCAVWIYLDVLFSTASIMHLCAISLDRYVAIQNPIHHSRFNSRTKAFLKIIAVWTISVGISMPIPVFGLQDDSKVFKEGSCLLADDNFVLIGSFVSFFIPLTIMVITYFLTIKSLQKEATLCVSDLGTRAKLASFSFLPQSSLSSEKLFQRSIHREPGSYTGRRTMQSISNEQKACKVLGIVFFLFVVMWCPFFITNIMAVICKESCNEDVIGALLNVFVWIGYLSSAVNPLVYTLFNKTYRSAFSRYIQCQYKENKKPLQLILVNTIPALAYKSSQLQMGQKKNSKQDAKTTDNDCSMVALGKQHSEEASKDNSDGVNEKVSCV

Target: 5-hydroxytryptamine receptor 2A (Homo sapiens) (UniProt P28223)
Conditions: CHO-K1; 50 uM

inhibition: 93.3%
SMILES: CNC(=O)c1cc(Oc2ccc(NC(=O)Nc3ccc(Cl)c(C(F)(F)F)c3)cc2)ccn1 [SORAFENIB]
